Laboratory results from PubChem BioAssay AID651654 (Broad Institute, 2012).
Only a part is listed here, and it is no random draw. The source made the active and inactive calls.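 The calls were made as follows: active = mean lysis activity across replicates of at least 80%, whatever share of replicates individually reach that level; inactive = mean lysis activity below 80%.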

Assay: Cryptococcus neoformans cell lysis inducers, primary screen, AK release luminescence, single concentration (AID 651654)
Settings: C. neoformans lysis, adenylate kinase release luminescence, 4 h; at 15 µM; stronger effect = higher value; normalised: neutral wells 0, clomiphene wells 100
How it was run: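 Test system: log-phase Cryptococcus neoformans yeast cells; Quantity: yeast cell density of 5 × 10^6 cells/mL; Buffer or medium: YPD; Doses: single compound concentration per well; Timing: 4 h at 37 °C static, read 1 h later; Measured by: AK luminescence; Read-out basis: lysis from increased AK signal; Control set: Clomiphene as positive control.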

Structure (SMILES)	lysis activity
CN(C)C(=O)Oc1noc2ccccc12	inactive: 3.05%
CC(NC(=O)COC(=O)C(O)(c1ccccc1)c1ccccc1)c1ccccc1 (stereo unspecified)	inactive: -0.032%
CCNC(=S)/N=C(\N)N[N+](=O)[O-]	inactive: -0.599%
Cc1ccc(NP(=O)(Oc2cccc(C)c2)Oc2cccc(C)c2)nc1	inactive: -0.983%
O=P1(N(CCCl)CCCl)OCCC2CCCCN21 (stereo unspecified)	inactive: -1.85%
CC(=O)c1ccc(N2CC2c2ccncc2)cc1 (stereo unspecified)	inactive: 1.17%
C[C@@H]1C=CCP(=O)(Oc2ccccc2)O1 (stereo partly specified)	inactive: 2.97%
C[C@H]1OP(=O)(Oc2ccccc2)C[C@@H]2O[C@@H]21 (stereo partly specified)	inactive: -4.36%
Cc1ccccc1CN(C)C(=O)COC(=O)C(O)(c1ccccc1)c1ccccc1	inactive: -0.717%
CC(=O)Nc1ccc(Oc2c([N+](=O)[O-])cc([N+](=O)[O-])cc2[N+](=O)[O-])cc1	inactive: 0.327%
CC(=O)Nc1ccc([As](=O)(O)O)c(O)c1	inactive: -0.253%
O=P1(Nc2nc3ccc(Cl)cc3s2)COc2ccccc2O1 (stereo unspecified)	inactive: 0.167%
CCc1cc(O)c([N+](=O)[O-])c(C)c1[N+](=O)[O-]	inactive: -0.132%
O=P(Nc1nccs1)(c1ccccc1)c1ccccc1	inactive: 2.75%
c1nnnn1CCn1cnnn1	inactive: 1.43%
O=[N+]([O-])c1ccc(O)c(/C=N/Nc2ccc([N+](=O)[O-])cc2[N+](=O)[O-])c1	inactive: -1.88%
CC(=O)NC(SC(=S)N(C)C)C(Cl)(Cl)Cl (stereo unspecified)	inactive: 4.46%
O=[As](O)(c1ccccc1)c1ccc(O)cc1	inactive: -1.09%
Nc1ccc([As](=O)(O)c2ccc([N+](=O)[O-])cc2)cc1	inactive: -3.13%
O=C(OC1CN2CCC1CC2)c1cccc(Cl)c1 (stereo unspecified)	inactive: -2.42%
Nc1ccc(CCCCOc2ccccc2)cc1	inactive: 0.433%
COc1ccc(N)c([N+](=O)[O-])c1[N+](=O)[O-]	inactive: -0.332%
O=P(Nc1ccccn1)(c1ccc(Br)cc1)c1ccc(Br)cc1	inactive: -6.87%
CN(C)C1(CNC(=O)c2ccc(Cl)c(S(N)(=O)=O)c2)CCCCC1	inactive: 1.28%
C[C@H]1OP(=O)(Oc2ccccc2)[C@H](O)[C@H](O)[C@H]1N=[N+]=[N-] (stereo partly specified)	inactive: 3.53%
O=P(Nc1nc2ccccc2s1)(c1ccccc1)c1ccccc1	inactive: -4.91%
